The structures appear in SMILES notation.

Amino acid sequences for entries named in this document (tags omitted). A change or cut given only in a name is not applied to a line headed by its entry.
UniProt O70528: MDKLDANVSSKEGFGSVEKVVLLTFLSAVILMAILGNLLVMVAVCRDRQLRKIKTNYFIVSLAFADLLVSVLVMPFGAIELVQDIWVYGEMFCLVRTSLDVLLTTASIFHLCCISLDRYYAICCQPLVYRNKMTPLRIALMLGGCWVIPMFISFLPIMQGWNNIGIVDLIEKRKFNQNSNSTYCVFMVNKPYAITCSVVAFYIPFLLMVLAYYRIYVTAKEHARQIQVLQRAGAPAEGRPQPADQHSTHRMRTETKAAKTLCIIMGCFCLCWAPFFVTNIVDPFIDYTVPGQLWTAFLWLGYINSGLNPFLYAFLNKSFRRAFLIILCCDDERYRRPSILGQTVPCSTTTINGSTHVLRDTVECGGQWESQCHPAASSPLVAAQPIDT

Data on one compound can be found in ChEMBL document CHEMBL1129946, “New esters of 4-amino-5-chloro-2-methoxybenzoic acid as potent agonists and antagonists for 5-HT4 receptors” (J Med Chem, 1997).

The experiment has as its target 5-hydroxytryptamine receptor 4 (Cavia porcellus) (UniProt O70528). In words: 5-hydroxytryptamine 4 receptor agonist activity is expressed as percent of the maximum 5-HT response. Type of experiment: functional.

In turn, `COc1cc(N)c(Cl)cc1C(=O)OCCN1CCOCC1` returned an Activity of 53%.
